# pEC50, pKi: −log10 of the molar value.
# Amino acid sequences for entries named in this document (tags omitted).
# UniProt Q92847, whole entry: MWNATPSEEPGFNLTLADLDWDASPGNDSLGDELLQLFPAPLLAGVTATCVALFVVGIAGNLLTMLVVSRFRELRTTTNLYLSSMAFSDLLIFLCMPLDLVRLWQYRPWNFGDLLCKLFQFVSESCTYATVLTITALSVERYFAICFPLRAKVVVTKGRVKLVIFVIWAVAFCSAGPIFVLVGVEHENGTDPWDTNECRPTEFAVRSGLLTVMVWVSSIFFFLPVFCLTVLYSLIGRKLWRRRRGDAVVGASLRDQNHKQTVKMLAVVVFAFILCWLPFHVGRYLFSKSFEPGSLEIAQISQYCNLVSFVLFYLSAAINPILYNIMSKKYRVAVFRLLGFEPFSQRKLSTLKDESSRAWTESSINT
# Key:
# [1] = molecular target: T1, Growth hormone secretagogue receptor type 1 (Homo sapiens, UniProt Q92847); experiment: Displacement of […] from SNAP-tagged human GHSR expressed in HEK293T cells after 3 hrs by HTRF assay; type: cell-based
# [2] = molecular target: T1, Growth hormone secretagogue receptor type 1; experiment: Inverse agonist activity at SNAP-tagged human GHSR expressed in HEK293T cells assessed as reduction in inositol phosphate production after 30 mins by HTRF assay; type: functional, cell-based
compound,measurement,setting,value
CC(C)C[C@H](NC(=O)[C@H](CC(C)C)NC(=O)[C@@H](Cc1c[nH]c2ccccc12)NC(=O)[C@H](Cc1ccccc1)NC(=O)[C@@H](Cc1c[nH]c2ccccc12)NC(=O)[C@H](CCC(N)=O)NC(=O)[C@@H](Cc1ccccc1)NC(=O)[C@@H]1CCCN1C(=O)[C@H](CCCCN)NC(=O)[C@@H]1CCCN1C(=O)[C@H](N)CCCN=C(N)N)C(N)=O,pKi,[1],7.12
same,pEC50,[2],7.01
